# Values of other authors in US4096052A, “Electrochemical hydroxylation of certain aromatic compounds” (priority 1977, dated 1978).
# Details: Table II (comparison acids), H2O
compound,measurement,value
"CC(=O)O [acetic, acetic acid]",Ka (H2 O) at 25° C,1.76 × 10^-5
